Patent publication US11939379B2, “Antibody chemically induced dimerizer (AbCID) as molecular switches for regulating cellular therapies” (The Regents of the University of California, priority 2017, dated 2024)
Where a chain is given by its changes, count along the chain named. Entries after “also recorded” stand apart in the source; their conditions may differ. Each block holds one molecule with its values, some of them ahead of it.

Protein sequences, listed by entry. Tags and fused reporters are not part of them. Residues count along the entry.
UniProt Q07817, 2-215: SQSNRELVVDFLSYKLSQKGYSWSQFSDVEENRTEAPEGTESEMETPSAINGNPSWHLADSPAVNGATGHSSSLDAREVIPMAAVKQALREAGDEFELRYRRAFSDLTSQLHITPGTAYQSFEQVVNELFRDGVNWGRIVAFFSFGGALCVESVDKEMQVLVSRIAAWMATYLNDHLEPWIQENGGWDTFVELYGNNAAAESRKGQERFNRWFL

Legend:
BCL-xL/ABT-737 complex = target: T1, BCL-xL/ABT-737 complex (Homo sapiens, UniProt Q07817); test: Biolayer interferometry, Fab binding to BCL-xL in the presence of ABT-737; conditions: for binding to BCL-xL in the presence of ABT-737: biolayer interferometry, ABT-737 1 μM; for KOFF / KON: ABT-737 1 μM present (+)
T1 construct: C-terminally truncated BCL-xL (residues 2-215) with an N-terminal AviTag; made in house; host or cells: E. coli BL21(DE3), pMCSG7 vector
Method: (§1) Biolayer interferometery data were measured using an Octet RED384 instrument (ForteBio). Biotinylated BCL-xL was immobilized on a Streptavidin (SA) biosensor using a 200 nM solution. Serial dilutions of Fabs in kinetics buffer (PBS, pH 7.4, 0.05% Tween-20, 0.2% BSA, 10 μM biotin) with small molecule (1 μM), peptide (5 μM), or vehicle (0.05% DMSO) were used as analyte. Affinity (KD) and kinetic parameters (kon and koff) were calculated from a global fit (1:1) of the data using the Octet RED384 software.

BCL-xL/ABT-263 complex = target: T2, BCL-xL/ABT-263 complex (Homo sapiens, UniProt Q07817); test: Biolayer interferometry, Fab binding to BCL-xL in the presence of ABT-263; conditions: compared with the BCL-xL/ABT-737 complex
T2 construct: C-terminally truncated BCL-xL (residues 2-215) with an N-terminal AviTag; made in house; host or cells: E. coli BL21(DE3), pMCSG7 vector
Method: as §1
(§2) We hypothesized that the exquisite selectivity of our Fabs was the result of direct interactions of the Fab CDRs with parts of ABT-737. We reasoned that if this were the case, the Fab would bind less potently to other BCL-xL-ligand complexes. ABT-263 is an analog that binds with similar potency to the same conformation of BCL-xL as ABT-737 (RMSD=0.8) (FIG. 2A and FIG. 2B) (Tse, et al., Cancer Res., 68, 3421-3428 (2008)). To test our hypothesis, we measured the ability of AZ1, AZ2, and AZ3 to discriminate between ABT-737, ABT-263, and the native-ligand-derived Bak-peptide (Sattler, et al., Science, 275: 983986 (1997)) bound BCL-xL (FIG. 2C).

[1] = target: T3, BCL-xL/Bak peptide complex (Homo sapiens, UniProt Q07817); test: Biolayer interferometry, Fab binding to BCL-xL in the presence of Bak peptide; conditions: peptide 5 μM
T3 construct: C-terminally truncated BCL-xL (residues 2-215) with an N-terminal AviTag; made in house; host or cells: BCL-xL: E. coli BL21(DE3), pMCSG7; Bak peptide purchased (Anaspec AS-61616)
Method: as §1, §2

BCL-xL (apo form) = target: T4, BCL-xL (apo form) (Homo sapiens, UniProt Q07817); test: Biolayer interferometry, Fab binding to BCL-xL in the absence of ABT-737; conditions: DMSO only; concentrations up to 5000 nM of Fab
T4 construct: C-terminally truncated BCL-xL (residues 2-215) with an N-terminal AviTag; made in house; host or cells: E. coli BL21(DE3), pMCSG7 vector
Method: as §1

binding to BCL-xL in the presence of ABT-737 (BCL-xL/ABT-737 complex): less potently
selectivity for the ABT-737-bound form over DMSO only (BCL-xL/ABT-737 complex; compared with Fabs AZ1 and AZ3): less selectivity
B1: AZ4: Fab clone selected against Bcl-xL + ABT-737 complex (antibody)
heavy: EISEVQLVESGGGLVQPGGSLRLSCAASGFNIYSSSIHWVRQAPGKGLEWVASIYPYYGYTYYADSVKGRFTISADTSKNTAYLQMNSLRAEDTAVYYCARSWWPYGMDYWGQGTLVTVSSASTKGPSVFPLAPSSKSTSGGTAALGCLVKDYFPEPVTVSWNSGALTSGVHTFPAVLQSSGLYSLSSVVTVPSSSLGTQTYICNVNHKPSNTKVDKKVEPKSCDKTHTGGSHHHHHH
light: SDIQMTQSPSSLSASVGDRVTITCRASQSVSSAVAWYQQKPGKAPKLLIYSASSLYSGVPSRFSGSRSGTDFTLTISSLQPEDFATYYCQQVPAFPITFGQGTKVEIKRTVAAPSVFIFPPSDSQLKSGTASVVCLLNNFYPREAKVQWKVDNALQSGNSQESVTEQDSKDSTYSLSSTLTLSKADYEKHKVYACEVTHQGLSSPVTKSFNRGECGGSDYKDDDDK

binding to the BCL-xL/ABT-263 complex (BCL-xL/ABT-263 complex): dramatically weaker binding
binding to the BCL-xL/Bak-peptide complex [1]: no detectable binding
KOFF (BCL-xL/ABT-737 complex): 20.9 10^−4 s^−1
KON (BCL-xL/ABT-737 complex): 2.2 10^5 M^−1s^−1
binding to BCL-xL in the presence of ABT-737 (BCL-xL/ABT-737 complex): potent binding
B2: AZ3: Fab clone selected against Bcl-xL + ABT-737 complex (antibody)
heavy: EISEVQLVESGGGLVQPGGSLRLSCAASGFNIYYSYMHWVRQAPGKGLEWVASISPYSSYTSYADSVKGRFTISADTSKNTAYLQMNSLRAEDTAVYYCARYGYSYYYYGALDYWGQGTLVTVSSASTKGPSVFPLAPSSKSTSGGTAALGCLVKDYFPEPVTVSWNSGALTSGVHTFPAVLQSSGLYSLSSVVTVPSSSLGTQTYICNVNHKPSNTKVDKKVEPKSCDKTHTGGSHHHHHH
light: SDIQMTQSPSSLSASVGDRVTITCRASQSVSSAVAWYQQKPGKAPKLLIYSASSLYSGVPSRFSGSRSGTDFTLTISSLQPEDFATYYCQQGWSGPWLITFGQGTKVEIKRTVAAPSVFIFPPSDSQLKSGTASVVCLLNNFYPREAKVQWKVDNALQSGNSQESVTEQDSKDSTYSLSSTLTLSKADYEKHKVYACEVTHQGLSSPVTKSFNRGECGGSDYKDDDDK
binding to BCL-xL in the absence of ABT-737 (BCL-xL (apo form)): no detectable binding; also recorded: negligible binding

binding to the BCL-xL/ABT-263 complex (BCL-xL/ABT-263 complex): dramatically weaker binding
binding to the BCL-xL/Bak-peptide complex [1]: no detectable binding
KOFF (BCL-xL/ABT-737 complex): 4.0 10^−4 s^−1
KON (BCL-xL/ABT-737 complex): 1.3 10^5 M^−1s^−1
binding to BCL-xL in the presence of ABT-737 (BCL-xL/ABT-737 complex): potent and reversible binding
B3: AZ1: Fab clone selected against Bcl-xL + ABT-737 complex (antibody)
heavy: EISEVQLVESGGGLVQPGGSLRLSCAASGFNLSYSSMHWVRQAPGKGLEWVASISPYSSYTSYADSVKGRFTISADTSKNTAYLQMNSLRAEDTAVYYCARGWVGMDYWGQGTLVTVSSASTKGPSVFPLAPSSKSTSGGTAALGCLVKDYFPEPVTVSWNSGALTSGVHTFPAVLQSSGLYSLSSVVTVPSSSLGTQTYICNVNHKPSNTKVDKKVEPKSCDKTHTGGSHHHHHH
light: SDIQMTQSPSSLSASVGDRVTITCRASQSVSSAVAWYQQKPGKAPKLLIYSASSLYSGVPSRFSGSRSGTDFTLTISSLQPEDFATYYCQQYYWGFPSLFTFGQGTKVEIKRTVAAPSVFIFPPSDSQLKSGTASVVCLLNNFYPREAKVQWKVDNALQSGNSQESVTEQDSKDSTYSLSSTLTLSKADYEKHKVYACEVTHQGLSSPVTKSFNRGECGGSDYKDDDDK
binding to BCL-xL in the absence of ABT-737 (BCL-xL (apo form)): no detectable binding; also recorded: no significant binding

binding to the BCL-xL/ABT-263 complex (BCL-xL/ABT-263 complex): dramatically weaker binding
binding to the BCL-xL/Bak-peptide complex [1]: no detectable binding
KOFF (BCL-xL/ABT-737 complex): 2.6 10^−4 s^−1
KON (BCL-xL/ABT-737 complex): 1.1 10^5 M^−1s^−1
binding to BCL-xL in the presence of ABT-737 (BCL-xL/ABT-737 complex): potent and reversible binding
B4: AZ2: Fab clone selected against Bcl-xL + ABT-737 complex (antibody)
heavy: EISEVQLVESGGGLVQPGGSLRLSCAASGFNIYSYYMHWVRQAPGKGLEWVAYISPYYSYTSYADSVKGRFTISADTSKNTAYLQMNSLRAEDTAVYYCARGYPWYGMDYWGQGTLVTVSSASTKGPSVFPLAPSSKSTSGGTAALGCLVKDYFPEPVTVSWNSGALTSGVHTFPAVLQSSGLYSLSSVVTVPSSSLGTQTYICNVNHKPSNTKVDKKVEPKSCDKTHTGGSHHHHHH
light: B3 light with Y92V, Y93S, G95A, F96Y, S98Y, F100I
binding to BCL-xL in the absence of ABT-737 (BCL-xL (apo form)): no detectable binding; also recorded: no significant binding
